These are literature values, as cited in publication PMC4303307 (Biochemistry, 2014).

For the data set, the target named is T1, human γD-crystallin (HGD) (Homo sapiens, UniProt P07320).
T1 sequence (P07320 1-174): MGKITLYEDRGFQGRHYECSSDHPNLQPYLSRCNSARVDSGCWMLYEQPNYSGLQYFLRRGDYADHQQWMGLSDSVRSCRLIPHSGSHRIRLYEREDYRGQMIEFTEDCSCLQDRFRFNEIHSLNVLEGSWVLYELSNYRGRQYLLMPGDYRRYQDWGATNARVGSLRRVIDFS
To be noted: incubated at 55 °C for 16 h; cited from earlier work.

B1: human αA-crystallin: parent protein of MAC; small heat-shock protein of the lens (protein, UniProt P02489 1-173, looked up)
Alpha-crystallin A chain: MDVTIQHPWFKRTLGPFYPSRLFDQFFGEGLFEYDLLPFLSSTISPYYRQSLFRTVLDSGISEVRSDRDKFVIFLDVKHFSPEDLTVKVQDDFVEIHGKHNERQDDHGYISREFHRRYRLPSNVDQSALSCSLSADGMLTFCGPKIQTGLDATHAERAIPVSREEKPTSAPSS
As to B1, the “HGD bound to human αA-crystallin” value is at most 20%.
